Target: T1, Human DPP IV (Homo sapiens, UniProt P27487)
T1 construct: gene DPP4
Assay: Gly-Pro-MCA fluorescence hydrolysis inhibition; Ki by Cheng-Prusoff
Conditions: […] Gly-Pro-MCA, […] sodium phosphate pH […] EDTA, […] Tween […] K, […] min; competitive

The chains behind the UniProt entries cited, without tags or fusion partners. Residues count along the entry.
UniProt P27487, 39-766: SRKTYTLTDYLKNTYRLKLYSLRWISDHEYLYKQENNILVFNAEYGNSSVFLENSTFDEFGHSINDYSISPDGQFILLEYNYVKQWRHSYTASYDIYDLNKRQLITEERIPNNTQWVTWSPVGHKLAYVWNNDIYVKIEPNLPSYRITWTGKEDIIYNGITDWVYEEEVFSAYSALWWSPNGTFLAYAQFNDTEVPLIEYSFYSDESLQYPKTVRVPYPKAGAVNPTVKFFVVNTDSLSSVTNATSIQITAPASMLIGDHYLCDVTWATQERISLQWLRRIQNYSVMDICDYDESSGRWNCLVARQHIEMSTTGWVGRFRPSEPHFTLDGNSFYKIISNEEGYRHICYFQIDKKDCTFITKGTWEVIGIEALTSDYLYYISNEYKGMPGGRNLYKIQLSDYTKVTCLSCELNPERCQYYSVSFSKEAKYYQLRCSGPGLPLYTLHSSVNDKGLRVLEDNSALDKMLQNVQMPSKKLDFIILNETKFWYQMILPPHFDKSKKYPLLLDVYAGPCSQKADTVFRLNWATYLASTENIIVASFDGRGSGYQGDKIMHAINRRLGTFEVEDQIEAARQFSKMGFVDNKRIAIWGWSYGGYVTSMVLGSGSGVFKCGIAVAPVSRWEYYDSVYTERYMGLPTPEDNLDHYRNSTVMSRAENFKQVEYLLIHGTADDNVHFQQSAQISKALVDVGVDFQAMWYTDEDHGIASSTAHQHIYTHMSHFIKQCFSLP

A Ki of 4.01 ± 0.3 µM was found for `CC[C@H](C)[C@H](N)C(=O)N1CCC[C@H]1C(=O)N[C@H](C(=O)O)[C@@H](C)CC` [diprotin A] in this work.

Source: article PMC5807507, “Crystal structures of a bacterial dipeptidyl peptidase IV reveal a novel substrate recognition mechanism distinct from that of mammalian orthologues” (Scientific Reports, 2018)
